Results taken from publication PMC2848180 (American journal of obstetrics and gynecology, 2010).

Protein sequences, listed by entry. Tags and fused reporters are not part of them. Lines headed by an entry give the natural chain unless they say otherwise; changes in a name come on top.
UniProt Q9UNQ0: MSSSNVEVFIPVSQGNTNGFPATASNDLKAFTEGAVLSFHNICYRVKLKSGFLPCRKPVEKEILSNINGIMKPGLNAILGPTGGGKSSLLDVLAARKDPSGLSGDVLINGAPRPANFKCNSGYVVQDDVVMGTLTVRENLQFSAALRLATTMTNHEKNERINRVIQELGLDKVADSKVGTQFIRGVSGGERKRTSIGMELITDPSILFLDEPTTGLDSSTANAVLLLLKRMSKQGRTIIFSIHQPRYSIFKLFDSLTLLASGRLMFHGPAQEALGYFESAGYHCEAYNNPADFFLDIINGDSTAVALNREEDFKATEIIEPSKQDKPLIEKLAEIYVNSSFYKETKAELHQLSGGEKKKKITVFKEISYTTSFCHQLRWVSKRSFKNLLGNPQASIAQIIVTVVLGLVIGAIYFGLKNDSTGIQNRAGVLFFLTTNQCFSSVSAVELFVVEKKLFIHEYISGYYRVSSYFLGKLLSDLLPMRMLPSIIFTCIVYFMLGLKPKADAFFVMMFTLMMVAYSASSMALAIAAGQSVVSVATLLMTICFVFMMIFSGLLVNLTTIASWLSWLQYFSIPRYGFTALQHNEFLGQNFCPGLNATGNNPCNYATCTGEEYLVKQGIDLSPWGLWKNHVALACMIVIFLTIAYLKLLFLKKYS
UniProt P33527: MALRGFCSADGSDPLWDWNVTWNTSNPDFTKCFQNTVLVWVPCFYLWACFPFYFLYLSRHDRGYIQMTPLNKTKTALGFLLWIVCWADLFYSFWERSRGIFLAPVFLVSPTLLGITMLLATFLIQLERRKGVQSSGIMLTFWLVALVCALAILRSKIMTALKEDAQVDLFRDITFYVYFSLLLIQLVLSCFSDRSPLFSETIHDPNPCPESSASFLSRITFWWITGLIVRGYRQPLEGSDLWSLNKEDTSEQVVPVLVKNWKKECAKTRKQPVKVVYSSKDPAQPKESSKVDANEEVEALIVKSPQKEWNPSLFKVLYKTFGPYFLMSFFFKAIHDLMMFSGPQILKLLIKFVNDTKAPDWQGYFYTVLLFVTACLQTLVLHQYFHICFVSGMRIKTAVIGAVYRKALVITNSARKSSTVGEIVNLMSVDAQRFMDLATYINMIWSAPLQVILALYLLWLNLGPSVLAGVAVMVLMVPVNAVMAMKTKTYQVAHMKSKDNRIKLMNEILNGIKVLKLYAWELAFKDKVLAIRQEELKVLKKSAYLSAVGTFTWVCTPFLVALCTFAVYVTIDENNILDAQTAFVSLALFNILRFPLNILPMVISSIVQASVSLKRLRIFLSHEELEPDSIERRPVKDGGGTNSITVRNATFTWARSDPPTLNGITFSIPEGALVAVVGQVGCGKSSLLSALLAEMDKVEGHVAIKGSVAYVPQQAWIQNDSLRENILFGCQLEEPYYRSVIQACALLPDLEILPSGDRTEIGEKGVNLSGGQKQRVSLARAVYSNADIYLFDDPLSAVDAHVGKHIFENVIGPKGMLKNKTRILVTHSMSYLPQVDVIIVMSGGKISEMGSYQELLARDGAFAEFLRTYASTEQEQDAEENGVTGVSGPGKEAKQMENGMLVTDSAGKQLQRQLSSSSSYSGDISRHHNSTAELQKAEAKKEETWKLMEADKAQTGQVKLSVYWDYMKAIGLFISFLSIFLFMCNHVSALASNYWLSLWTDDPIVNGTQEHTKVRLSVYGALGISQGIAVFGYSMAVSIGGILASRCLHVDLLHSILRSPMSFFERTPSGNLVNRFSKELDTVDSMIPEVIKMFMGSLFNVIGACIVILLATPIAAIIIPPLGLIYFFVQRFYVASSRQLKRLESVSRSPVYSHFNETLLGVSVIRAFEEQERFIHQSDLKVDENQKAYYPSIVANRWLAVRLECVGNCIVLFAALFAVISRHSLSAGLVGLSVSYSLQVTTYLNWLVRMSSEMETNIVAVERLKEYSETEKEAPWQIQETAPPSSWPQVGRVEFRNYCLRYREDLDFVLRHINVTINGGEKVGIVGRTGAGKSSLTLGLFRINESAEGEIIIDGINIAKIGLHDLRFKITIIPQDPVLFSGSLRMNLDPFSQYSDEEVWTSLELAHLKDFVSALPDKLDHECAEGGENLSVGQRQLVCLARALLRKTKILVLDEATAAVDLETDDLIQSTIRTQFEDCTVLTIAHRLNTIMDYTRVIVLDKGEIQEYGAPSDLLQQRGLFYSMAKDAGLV
UniProt P08183, whole entry: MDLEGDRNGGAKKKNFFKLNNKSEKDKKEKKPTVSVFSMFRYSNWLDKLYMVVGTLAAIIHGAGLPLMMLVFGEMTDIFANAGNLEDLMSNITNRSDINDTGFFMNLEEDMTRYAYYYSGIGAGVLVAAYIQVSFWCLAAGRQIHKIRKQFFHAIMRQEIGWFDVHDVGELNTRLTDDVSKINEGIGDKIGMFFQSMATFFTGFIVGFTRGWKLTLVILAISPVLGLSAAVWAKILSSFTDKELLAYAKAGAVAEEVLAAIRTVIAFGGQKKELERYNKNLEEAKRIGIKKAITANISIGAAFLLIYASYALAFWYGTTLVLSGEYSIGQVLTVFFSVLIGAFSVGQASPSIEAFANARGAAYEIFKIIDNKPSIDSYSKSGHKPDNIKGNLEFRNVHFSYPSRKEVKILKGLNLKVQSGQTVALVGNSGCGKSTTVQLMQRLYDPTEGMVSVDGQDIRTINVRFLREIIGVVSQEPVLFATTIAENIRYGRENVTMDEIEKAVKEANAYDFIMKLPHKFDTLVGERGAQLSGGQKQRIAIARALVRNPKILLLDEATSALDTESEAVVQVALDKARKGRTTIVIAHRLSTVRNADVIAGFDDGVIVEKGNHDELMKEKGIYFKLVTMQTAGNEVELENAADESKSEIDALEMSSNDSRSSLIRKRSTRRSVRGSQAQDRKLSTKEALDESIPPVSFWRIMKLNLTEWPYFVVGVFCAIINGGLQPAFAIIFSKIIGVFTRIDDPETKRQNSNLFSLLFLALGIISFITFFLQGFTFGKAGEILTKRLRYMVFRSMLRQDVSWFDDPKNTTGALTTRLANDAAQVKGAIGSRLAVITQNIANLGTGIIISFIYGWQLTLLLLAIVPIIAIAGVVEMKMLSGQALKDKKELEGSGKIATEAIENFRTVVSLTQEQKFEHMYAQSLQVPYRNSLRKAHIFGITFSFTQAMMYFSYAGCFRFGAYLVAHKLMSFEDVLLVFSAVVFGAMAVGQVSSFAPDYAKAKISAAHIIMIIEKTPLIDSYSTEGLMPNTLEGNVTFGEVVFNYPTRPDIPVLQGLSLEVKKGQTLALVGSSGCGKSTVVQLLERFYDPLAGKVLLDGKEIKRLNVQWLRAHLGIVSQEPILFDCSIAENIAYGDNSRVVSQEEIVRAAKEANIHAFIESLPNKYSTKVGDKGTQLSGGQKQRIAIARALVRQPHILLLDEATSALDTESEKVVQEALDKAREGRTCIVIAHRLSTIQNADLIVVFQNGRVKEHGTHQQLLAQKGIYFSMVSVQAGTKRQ

What was measured:
BCRP = BCRP (Homo sapiens, UniProt Q9UNQ0); conditions: 100 nM drug, 25 nM KO143, placental IOVs, 1 min
MRP1 = MRP1 (Homo sapiens, UniProt P33527); conditions: 100 nM drug, 100 μM indomethacin, placental IOVs, 1 min
P-gp = P-gp (Homo sapiens, UniProt P08183); conditions: placental IOVs
P-gp, BCRP, and MRP1 = conditions: 100 nM drug, 1 μM KO143, placental IOVs, 1 min

For `CN(CCOc1ccc(CC2SC(=O)NC2=O)cc1)c1ccccn1` (centres unmarked) [rosiglitazone], the “decrease of uptake on inhibition of BCRP by 25 nM KO143 (transport by BCRP)” value (BCRP) was “no effect”, the “decrease of uptake on inhibition of MRP1 by indomethacin (transport by MRP1)” value (MRP1) was “no effect” and the “decrease of uptake on inhibition of P-gp by verapamil (transport by P-gp)” value (P-gp; 100 nM drug, 600 μM verapamil, 1 min) was 71 ± 26%. The “apparent Kt of ATP-dependent transport by P-gp” value (P-gp) was 84 ± 47 nM and the “decrease of uptake on total inhibition of P-gp, BCRP, and MRP1 using 1 μM KO143” value (P-gp, BCRP, and MRP1) was 72 ± 36%.
